Reference: US5990275

Target: TAG-72 on bovine submaxillary mucin (bovine)
Experiment: competition ELISA against biotin-labeled CC49 IgG

## CC49/4-4-20 heterodimer Fv (fraction 5) (bispecific antibody)
  fold higher protein concentration needed to displace the IgG than the CC49/212 single-chain Fv: 200 fold
